From US12435061B2 (priority 2020, dated 2025) come the findings set out here.

Sequences of proteins named here, by UniProt entry; tags and fusion partners are left off.
UniProt Q8NET8, whole entry: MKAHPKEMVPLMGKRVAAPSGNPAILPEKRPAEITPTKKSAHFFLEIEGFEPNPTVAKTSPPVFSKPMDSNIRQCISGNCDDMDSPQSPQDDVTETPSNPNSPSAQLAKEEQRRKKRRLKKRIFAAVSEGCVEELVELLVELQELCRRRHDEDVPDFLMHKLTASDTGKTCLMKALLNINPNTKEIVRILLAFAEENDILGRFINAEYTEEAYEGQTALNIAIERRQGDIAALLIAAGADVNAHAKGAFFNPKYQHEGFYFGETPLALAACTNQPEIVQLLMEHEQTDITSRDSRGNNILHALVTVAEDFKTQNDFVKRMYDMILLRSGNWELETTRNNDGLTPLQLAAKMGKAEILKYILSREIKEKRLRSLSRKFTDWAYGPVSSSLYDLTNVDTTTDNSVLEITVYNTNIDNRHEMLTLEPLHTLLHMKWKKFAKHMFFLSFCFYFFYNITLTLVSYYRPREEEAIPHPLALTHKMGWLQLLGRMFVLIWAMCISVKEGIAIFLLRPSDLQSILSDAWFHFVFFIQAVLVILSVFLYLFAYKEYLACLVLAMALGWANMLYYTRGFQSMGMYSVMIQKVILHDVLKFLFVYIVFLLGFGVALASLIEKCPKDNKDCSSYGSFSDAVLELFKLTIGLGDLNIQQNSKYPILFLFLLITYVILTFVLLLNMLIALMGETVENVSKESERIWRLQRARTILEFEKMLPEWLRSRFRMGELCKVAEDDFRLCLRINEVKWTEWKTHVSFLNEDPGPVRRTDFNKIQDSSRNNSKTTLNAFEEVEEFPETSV

The target of assay [1] is T1, hTRPV3 (Homo sapiens (Human), UniProt Q8NET8). The assay is described as follows: FLIPR Assay (calcium flux, HEK293 cells stably expressing TRPV3). To be noted: read-out: FLIPR IC50. (Calcium flux is commonly read through the fluorescence of an indicator in the cells.)
Assay [2] addresses T1, hTRPV3. The experiment in a line: Whole-cell patch clamp, hTRPV3 Phase 1 / Phase 2 currents. To be noted: Phase 1 current. The format is cell-based.

With `Cc1cnc(C(=O)N2CCC(c3ccc(-c4ccccc4C4CC4)cc3CO)C2)nc1` (stereo not shown), the IC50 at hTRPV3 [1] is 4.6 µM.

Turning to `CC(C)(O)c1ccnc(C(=O)N2CCC(c3ccc(-c4ccccc4C4CC4)cc3CO)C2)c1` (stereo not shown), on hTRPV3 [1], the IC50 was over 10 µM.

Take `O=C(c1nc(CO)cs1)N1CCC(c2ccc(-c3ccccc3C3CC3)cc2CO)C1` (stereo not shown): on hTRPV3 [1], the IC50 is over 10 µM.

`COCc1ccc(C(=O)c2ccc(N3CC[C@H](Oc4ncccc4Cl)C3)c(CCO)c2)cc1`: the IC50 at hTRPV3 [2] (read-out: hTRPV3 (nM) (Phase 1)) was 3000 nM; at hTRPV3 [2] (read-out: hTRPV3 Patch P1 Inwd, inward, whole-cell patch clamp) it was over 1000 nM.

In the case of `CCn1ccc(C(=O)N2CCC(c3ccc(-c4ccccc4C4CC4)cc3CO)C2)n1` (stereo not shown), the IC50 at hTRPV3 [1] amounted to 5.74 µM.

`COCc1cccc(C(=O)N2CCC(c3ccc(-c4ccccc4C4CC4)cc3CO)C2)n1` (stereo not shown) [KM-036]: the IC50 at hTRPV3 [1] worked out at 0.66 µM.
